# Source: ChEMBL document CHEMBL1123302, “Antagonists of substance P. Further modifications of substance P antagonists obtained by replacing either positions 7, 9 or 7, 8 and 11 of SP with D-amino acid residues” (J Med Chem, 1986)
# Key:
# [1] = tested on: muscarinic acetylcholine receptor (Rattus norvegicus); assay: Antagonistic activity against Carbachol receptor in rat spinal cord at concentration of 50 uM.
# [2] = tested on: muscarinic acetylcholine receptor (Rattus norvegicus); assay: Antagonistic activity against Carbachol receptor in rat spinal cord at concentration of 1.0 uM.
# [3] = tested on: muscarinic acetylcholine receptor (Rattus norvegicus); assay: Antagonistic activity against Carbachol receptor in rat spinal cord at concentration of 5.0 uM.
Change in amplitude response [1] [%],Change in amplitude response [2] [%],Change in amplitude response [3] [%],Compound
-50,,,COC(=O)[C@@H](CCSC)NC(=O)[C@H](CC(C)C)SCCNC(=O)[C@@H](Cc1ccccc1)NC(=O)[C@H](Cc1ccccc1)NC(=O)[C@H](CCC(N)=O)NC(=O)[C@H](CCC(N)=O)NC(=O)[C@H]1CCCN1C(=O)[C@H](CCCCNC(=O)OCc1ccccc1)NC(=O)[C@H]1CCCN1C(=O)[C@H](CCCN=C(N)N)NC(=O)OCc1ccccc1
,-33,-46,COC(=O)[C@@H](CCSC)NC(=O)[C@@H](CC(C)C)SCCNC(=O)[C@@H](Cc1ccccc1)NC(=O)[C@H](Cc1ccccc1)NC(=O)[C@H](CCC(N)=O)NC(=O)[C@H](CCC(N)=O)NC(=O)[C@H]1CCCN1C(=O)[C@H](CCCCNC(=O)OCc1ccccc1)NC(=O)[C@H]1CCCN1C(=O)[C@H](CCCN=C(N)N)NC(=O)OCc1ccccc1
